Laboratory results: patent publication US6645969B1, “Aryl and heteroaryl quinazoline compounds which inhibit CSF-1R receptor tyrosine kinase” (Aventis Pharmaceuticals Inc., priority 1991, dated 2003)

Protein sequences, listed by entry. Tags and fused reporters are not part of them. Residues count along the entry.
UniProt P06239, whole entry: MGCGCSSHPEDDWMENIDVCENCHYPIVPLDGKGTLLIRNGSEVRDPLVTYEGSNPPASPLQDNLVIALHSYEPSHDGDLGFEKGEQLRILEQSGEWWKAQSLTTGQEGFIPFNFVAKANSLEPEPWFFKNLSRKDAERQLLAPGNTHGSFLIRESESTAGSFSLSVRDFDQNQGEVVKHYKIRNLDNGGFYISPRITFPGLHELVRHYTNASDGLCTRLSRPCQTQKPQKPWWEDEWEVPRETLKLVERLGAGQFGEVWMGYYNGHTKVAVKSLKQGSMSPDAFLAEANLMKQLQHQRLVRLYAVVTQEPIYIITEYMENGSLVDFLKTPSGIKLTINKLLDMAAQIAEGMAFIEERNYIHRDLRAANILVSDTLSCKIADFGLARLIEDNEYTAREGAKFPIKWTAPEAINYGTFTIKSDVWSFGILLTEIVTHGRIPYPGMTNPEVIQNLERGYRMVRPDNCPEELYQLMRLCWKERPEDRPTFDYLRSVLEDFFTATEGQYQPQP
UniProt P07333, 20-972 limits assumed: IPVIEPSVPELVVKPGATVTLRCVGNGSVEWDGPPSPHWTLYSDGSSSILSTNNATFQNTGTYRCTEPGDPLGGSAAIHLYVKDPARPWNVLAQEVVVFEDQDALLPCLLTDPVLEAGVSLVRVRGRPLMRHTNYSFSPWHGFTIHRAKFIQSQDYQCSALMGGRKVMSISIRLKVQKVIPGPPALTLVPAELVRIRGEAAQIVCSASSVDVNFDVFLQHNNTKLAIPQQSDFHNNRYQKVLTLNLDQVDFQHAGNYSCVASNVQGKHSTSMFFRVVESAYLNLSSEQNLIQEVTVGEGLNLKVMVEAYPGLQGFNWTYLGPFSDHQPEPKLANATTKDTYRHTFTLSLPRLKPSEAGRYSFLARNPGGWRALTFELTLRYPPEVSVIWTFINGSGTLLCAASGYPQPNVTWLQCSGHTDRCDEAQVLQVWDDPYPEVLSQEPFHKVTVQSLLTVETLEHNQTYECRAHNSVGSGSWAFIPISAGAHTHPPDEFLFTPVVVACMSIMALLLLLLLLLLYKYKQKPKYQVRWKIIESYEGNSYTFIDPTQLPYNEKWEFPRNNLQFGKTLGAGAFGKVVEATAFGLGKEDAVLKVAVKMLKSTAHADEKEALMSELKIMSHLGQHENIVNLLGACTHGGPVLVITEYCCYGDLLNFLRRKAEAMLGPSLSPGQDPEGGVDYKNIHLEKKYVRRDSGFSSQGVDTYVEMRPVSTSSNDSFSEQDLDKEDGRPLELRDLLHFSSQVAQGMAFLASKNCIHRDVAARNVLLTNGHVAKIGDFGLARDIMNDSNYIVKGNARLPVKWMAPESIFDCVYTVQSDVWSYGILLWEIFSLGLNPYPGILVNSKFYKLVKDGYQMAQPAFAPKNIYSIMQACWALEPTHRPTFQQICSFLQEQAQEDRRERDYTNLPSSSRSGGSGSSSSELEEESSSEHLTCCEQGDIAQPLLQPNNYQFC

What was measured:
[1] = molecular target: p56^Ick tyrosine kinase (Homo sapiens, UniProt P06239); assay: Ick kinase cell-free assay (immunoprecipitated from Jurkat lysate); type: biochemical; conditions: read-out: Ick activity IC50
[2] = molecular target: CSF-1R tyrosine kinase (Homo sapiens, UniProt P07333); assay: CSF-1R cell-free autophosphorylation assay; conditions: read-out: CSF-R activity IC50

SMILES: COc1cc2ncnc(Cc3ccccc3)c2cc1OC
- IC50 [1]: 100 µM
- IC50 [2]: 7 µM
